# In ChEMBL document CHEMBL4665835, “Synthesis and pharmacological evaluation of 11-(1,6-dimethyl-1,2,3,6-tetrahydropyridin-4-yl)-5H-dibenzo[b,e][1,4]diazepines with clozapine-like receptor occupancy at dopamine D/D receptor” (Bioorg Med Chem Lett, 2020):
# Sequences of proteins named here, by UniProt entry; tags and fusion partners are left off.
# UniProt P14416, whole entry: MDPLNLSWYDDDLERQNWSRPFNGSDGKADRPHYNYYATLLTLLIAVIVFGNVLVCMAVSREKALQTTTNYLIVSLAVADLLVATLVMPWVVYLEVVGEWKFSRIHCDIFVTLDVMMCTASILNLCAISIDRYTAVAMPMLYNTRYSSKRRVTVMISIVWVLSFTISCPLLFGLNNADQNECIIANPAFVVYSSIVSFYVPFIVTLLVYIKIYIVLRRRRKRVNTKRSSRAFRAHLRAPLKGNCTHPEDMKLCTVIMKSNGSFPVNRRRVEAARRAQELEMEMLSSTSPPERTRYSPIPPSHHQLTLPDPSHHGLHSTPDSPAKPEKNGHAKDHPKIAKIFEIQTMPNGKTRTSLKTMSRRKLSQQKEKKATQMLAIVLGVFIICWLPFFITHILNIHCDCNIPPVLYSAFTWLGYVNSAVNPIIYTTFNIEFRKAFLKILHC
# Molecular target: D(2) dopamine receptor (Homo sapiens, UniProt P14416)
smiles,measurement,value
CN1CCN([C@@H]2C[C@@H](c3ccccc3)c3ccc(Cl)cc32)CC1(C)C [ZICRONAPINE],Ki,28 nM
